## Apparent affinities of Ab-95 variants for a coronavirus HR2 peptide

Binding partner: SARS-CoV-2 spike HR2 peptide, sequence PDVDLGDISGINAS.

Parent: Ab-95, a human scFv built as VH, three GGGGS repeats, VL. Only the CDRs of the light chain vary.
VH: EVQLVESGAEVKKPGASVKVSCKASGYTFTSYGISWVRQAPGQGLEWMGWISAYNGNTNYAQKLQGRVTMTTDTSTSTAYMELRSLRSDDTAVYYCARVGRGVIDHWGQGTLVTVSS
VL: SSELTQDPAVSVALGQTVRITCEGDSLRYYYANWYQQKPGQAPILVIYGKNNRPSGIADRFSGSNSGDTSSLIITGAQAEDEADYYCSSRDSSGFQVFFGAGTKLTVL

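The starting antibody came from a phage panning campaign against this peptide. In library AAYL52, one, two or three CDR residues were substituted; doubles and triples were drawn at random. The scFvs were displayed on barcoded MATa yeast, the peptide on MATalpha yeast. The frequency of each diploid, read from paired DNA barcodes, reflects how well the two displayed proteins bind. A regression on co-assayed BCL2-family reference pairs converts the normalised counts of each replicate to an apparent Kd. There are three technical replicates.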

Each variant is given by its three light chain CDRs, as the data file delimits them; those of the parent are EGDSLRYYYAN, GKNNRPS, SSRDSSGFQVF. Scale: log10 of Kd in nM, estimated from mating counts; low values are strong binders. A mean of the replicates is given; it leaves out those without a signal. "ND" means that the variant was in the library but no mating with the target was seen in that replicate; the authors take this as a sign of poor binding, and no number exists.

| CDR-L1 | CDR-L2 | CDR-L3 | log10 Kd (nM) by replicate | log10 Kd (nM), mean | signal with controls |
|---|---|---|---|---|---|
| EGDSIRYYYDN | GKNNRPS | SSRDSSGFQVG | 4.12 / 3.25 / 3.58 | 3.65 | 4 of 9 (3.70) |
| EGDSLRYYYAN | GKNVRPS | SSRDSSYFGVF | 2.34 / 2.44 / 2.47 | 2.42 | 4 of 9 (4.34) |
| EGVSLRYYYAN | GKNNRPS | SSRQSSGIQVF | 4.11 / ND / ND | 4.11 | 1 of 9 (3.56) |
| EGDSLRYYSAH | GKNNRPS | SSRDSSGQQVF | ND / 4.59 / ND | 4.59 | 4 of 9 (4.31) |
| EGDFLCYYYCN | GKNNRPS | SSRDSSGFQVF | ND / ND / ND | ND | 3 of 9 (3.81) |
| EGDSLRYYYRN | GKNNRPS | QSRDSSGPQVF | ND / ND / ND | ND | 3 of 9 (4.20) |
| IGDSLRYEYAN | GSNNRPS | SSRDSSGFQVF | 2.88 / 3.16 / 2.97 | 3.00 | 3 of 9 (3.88) |
| EGDSLRDHYAN | GKNNRPS | SSRDSKGFQVF | 1.25 / 1.05 / 0.71 | 1.00 | 4 of 9 (4.07) |
| EGDSLRYYYMN | DKNNRPS | SSRESSGFQVF | 4.34 / 5.49 / 3.55 | 4.46 | 3 of 9 (3.21) |
| EGQILRYYYAN | GKNNRPS | SSRDSSGFQQF | 4.53 / 5.56 / ND | 5.05 | 4 of 9 (4.29) |
| EGDSLRYYYAN | GINTRPS | SLRDSSGFQVF | 3.91 / ND / ND | 3.91 | 1 of 9 (3.46) |
| EGDSLRYYHAN | GKNNRPS | SSRWSSGFQVF | 2.65 / 2.70 / ND | 2.67 | 4 of 9 (4.36) |
| EGTSLRYYYAN | GKNNYPS | SSRDSSGFMVF | ND / ND / ND | ND | 4 of 9 (4.01) |
| EGDSLRYYYAN | GKNNRPS | SMRDMSPFQVF | 3.66 / 3.21 / 3.55 | 3.47 | 5 of 9 (4.02) |
| EGDSLVYYYAN | GKNNRPS | SSRWSSGFQVL | ND / 4.22 / 3.13 | 3.68 | 1 of 9 (3.96) |
| EGDSLRYYYAN | GFNNSPL | SSRDSSGFQVF | 5.53 / ND / 2.69 | 4.11 | 1 of 9 (5.46) |
| EGDSMRNYYAL | GKNNRPS | SSRDSSGFQVF | 4.08 / 4.72 / ND | 4.40 | 3 of 9 (3.91) |
| EGDSLRYYYAN | GWNNEPS | SSRVSSGFQVF | 4.34 / ND / ND | 4.34 | 4 of 9 (4.08) |
| FGDSLRNYYAN | GKNNRPS | SSRASSGFQVF | 2.63 / 2.28 / 2.44 | 2.45 | 1 of 9 (4.18) |
| EGDSLRYYYAN | GKNNRPS | ISRDSSCFQVA | 2.09 / 2.47 / 2.05 | 2.20 | 4 of 9 (3.88) |
| EGDSLRYYYTN | GKNHRPS | SSRDSSGDQVF | 4.19 / 4.16 / 2.21 | 3.52 | 5 of 9 (4.46) |
| EGDSLRYYYAN | GKNNLPS | SSRDSSGFQVF | 2.90 / 2.84 / 2.44 | 2.72 | 1 of 9 (3.71) |
| EGDSLRYYYAN | GKRNRPC | SSEDSSGFQVF | ND / ND / ND | ND | 1 of 9 (3.49) |
| EGDSLRYYYAN | HKNARPS | SSRDYSGFQVF | 4.05 / ND / ND | 4.05 | 1 of 9 (2.96) |
| EGTSLRYYYAR | GKNNRPS | SSRDSSGFQVF | 3.85 / 4.36 / ND | 4.10 | 5 of 9 (4.67) |
| EGDSLEYYYSN | GKNNRPS | SSRDSSGFQVF | 2.42 / 2.54 / 2.67 | 2.54 | 4 of 9 (3.81) |
| EGDSLRYYYAM | GHNNRPS | SNRDSSGFQVF | 3.59 / 4.27 / ND | 3.93 | 2 of 9 (5.39) |
| EGDSLRYYYAN | GKNNRRS | SSRMSSGFQMF | ND / ND / ND | ND | 1 of 9 (3.43) |
| EGDSLRYYSAN | GKNNRPK | SSRASSGFQVF | 1.18 / 1.32 / 0.33 | 0.95 | 0 of 9 |
| EGDSIRFYYAN | GKNNRPS | SSRDSSRFQVF | ND / 4.66 / ND | 4.66 | 2 of 9 (3.55) |
| EGDSLRYYYAN | GKNNAPS | SSGDSSGFQLF | ND / ND / ND | ND | 1 of 9 (4.20) |
| EGDSLRWYYAN | GKNNRPS | SSRDCSGFLVF | 3.61 / 3.00 / 2.68 | 3.10 | 6 of 9 (3.93) |
| EGDSLRTYYAN | GKNNRSS | SSRDYSGFQVF | 2.54 / 2.84 / 3.62 | 3.00 | 1 of 9 (2.70) |
| EGDSLRYYYGN | GKNKRPS | SSRDSSGFQAF | ND / ND / 4.50 | 4.50 | 2 of 9 (4.08) |
| CGDSLRYYYAN | WKNNRPS | SSRDSKGFQVF | ND / 5.14 / 3.98 | 4.56 | 3 of 9 (4.13) |
| EGDSLRYYPAN | GKNNRPS | SSWDSSHFQVF | 2.37 / 2.16 / 2.10 | 2.21 | 4 of 9 (4.06) |
| EGDSFRYYYAN | GKNNRPS | SSRDSSGFQVF | 2.47 / 2.28 / 2.08 | 2.28 | 7 of 9 (3.63) |
| EGDSLRYYYAN | GKNERPS | FSRDHSGFQVF | 2.61 / 3.72 / 3.65 | 3.33 | 1 of 9 (3.29) |
| EGDSLGYYYAN | GKNNRPS | SKLDSSGFQVF | ND / 3.20 / ND | 3.20 | 0 of 9 |
| EGDSLRPYYAN | RKPNRPS | SSRDSSGFQVF | 4.11 / 3.62 / 4.04 | 3.92 | 1 of 9 (4.40) |
| EGDSLRYYYAN | GRNNRPS | SSRDSSGYQVA | 2.81 / 2.53 / 2.34 | 2.56 | 3 of 9 (3.85) |
| EGDSLRYWYAN | GKNNRPS | TSRPSSGFQVF | 4.40 / 4.72 / ND | 4.56 | 4 of 9 (3.73) |
| EGDSLRYYLAN | TKWNRPS | SSRDSSGFQVF | 4.14 / 5.15 / ND | 4.65 | 5 of 9 (4.37) |
| EGDSLRYYYAN | GKNNDPS | SSRCYSGFQVF | ND / 2.87 / ND | 2.87 | 0 of 9 |
| EGDSLRYYYHN | GKNNKPS | SSRDSSGEQVF | 3.47 / 3.14 / 4.19 | 3.60 | 1 of 9 (4.94) |
| EGDQLRYNYAN | GKRNRPS | SSRDSSGFQVF | ND / ND / ND | ND | 1 of 9 (3.70) |
| EGNSLRYYYAN | GKNNRPS | SSRPSSGFQPF | 2.99 / 2.24 / 2.08 | 2.44 | 3 of 9 (3.20) |
| EGDSLRYYYLN | GKNNRPS | WSADSSGFQVF | ND / ND / 4.03 | 4.03 | 1 of 9 (2.75) |
| EGDSLRYYYAN | GKNFRPS | SSRDSSGFNVF | 3.74 / 1.91 / 3.05 | 2.90 | 1 of 9 (4.68) |
| EGDHLRYMYAN | GKNNRPS | SSRDFSGFQVF | 1.83 / 1.84 / 1.23 | 1.64 | 2 of 9 (3.62) |

Picked from the list: the 5 lowest averages where every replicate gave a value.

| CDR-L1 | CDR-L2 | CDR-L3 | log10 Kd (nM) by replicate | log10 Kd (nM), mean | signal with controls |
|---|---|---|---|---|---|
| EGDSLRYYSAN | GKNNRPK | SSRASSGFQVF | 1.18 / 1.32 / 0.33 | 0.95 | 0 of 9 |
| EGDSLRDHYAN | GKNNRPS | SSRDSKGFQVF | 1.25 / 1.05 / 0.71 | 1.00 | 4 of 9 (4.07) |
| EGDHLRYMYAN | GKNNRPS | SSRDFSGFQVF | 1.83 / 1.84 / 1.23 | 1.64 | 2 of 9 (3.62) |
| EGDSLRYYYAN | GKNNRPS | ISRDSSCFQVA | 2.09 / 2.47 / 2.05 | 2.20 | 4 of 9 (3.88) |
| EGDSLRYYPAN | GKNNRPS | SSWDSSHFQVF | 2.37 / 2.16 / 2.10 | 2.21 | 4 of 9 (4.06) |

As a blank, each scFv also met three strains without target: over library AAYL52, 28% of these pairings were detected, typically at 3.91 and seldom below 2.90. The control count says in how many pairings with the empty strains this scFv gave a signal, with their mean in brackets.

Source: Engelhart et al. 2022 (doi:10.1038/s41597-022-01779-4), MIT Lincoln Laboratory and A-Alpha Bio; data file from the FLAb repository.